# Molecular target: Glucagon-like peptide 1 receptor (Homo sapiens, UniProt P43220)
# Chains of the proteins cited; added tags and fusions are not shown.
# UniProt P43220, whole entry: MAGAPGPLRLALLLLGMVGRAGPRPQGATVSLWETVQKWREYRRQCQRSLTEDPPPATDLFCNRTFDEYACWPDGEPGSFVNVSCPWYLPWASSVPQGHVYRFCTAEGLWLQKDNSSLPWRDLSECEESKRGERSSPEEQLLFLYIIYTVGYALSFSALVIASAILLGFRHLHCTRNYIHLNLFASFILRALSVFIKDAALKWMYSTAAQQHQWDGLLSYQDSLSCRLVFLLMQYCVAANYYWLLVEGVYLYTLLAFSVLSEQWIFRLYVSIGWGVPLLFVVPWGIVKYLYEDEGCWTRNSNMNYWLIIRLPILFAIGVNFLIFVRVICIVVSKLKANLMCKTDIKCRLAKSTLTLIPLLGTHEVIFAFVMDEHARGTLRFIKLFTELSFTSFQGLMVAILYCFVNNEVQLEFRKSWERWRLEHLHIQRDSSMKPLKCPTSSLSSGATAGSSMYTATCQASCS
# Assay: Agonist activity at human GLP1R expressed in frozen cells assessed as increase in cAMP production measured after 1 hr by HitHunter luminescence assay
# Format: functional, cell-based
sequence,measurement,value
GLUCAGON,EC50,0.057 nM

# Source: ChEMBL document CHEMBL5126614, “Discovery of MK-1462: GLP-1 and Glucagon Receptor Dual Agonist for the Treatment of Obesity and Diabetes” (ACS Med Chem Lett, 2022)
